Like-named read-outs stand apart in the source and are kept apart here.
Tests used:
EV-D68 isolates = assay: microbe, parasite or virus in culture; type: cell-based; conditions: Enterovirus D, EVD68, read-out: EC50, range
EV-A71 isolates = assay: microbe, parasite or virus in culture; type: cell-based; conditions: Enterovirus A, EVA71, read-out: EC50, range
rats = conditions: 14-day repeat oral dosing
dogs = conditions: 14-day repeat oral dosing
[1] = day 14, GeoMean; for LI (linearity index) / RAUC (accumulation ratio for AUC) / RCmax (accumulation ratio for Cmax): fasted

SMILES: C#CC[C@@H](C(=O)N[C@H](/C=C/C(=O)OCC)C[C@@H]1CCNC1=O)n1cccc(NC(=O)c2cc(C)on2)c1=O [V-7404]
- EC50 (EV-D68 isolates): 4 to 27 nM
- EC50 (EV-A71 isolates): 22 to 509 nM
- tolerability (rats): well tolerated at all dose levels and produced no adverse effects
- tolerability (dogs): well tolerated at all dose levels and produced no adverse effects
- LI (linearity index) ([1]; MAD cohort 1, 500 mg QD oral): 1.254
- RAUC (accumulation ratio for AUC) ([1]; MAD cohort 1, 500 mg QD oral): 1.258
- RCmax (accumulation ratio for Cmax) ([1]; MAD cohort 1, 500 mg QD oral): 1.499
- LI (linearity index) ([1]; MAD cohort 2, 1,000 mg QD oral): 0.869
- RAUC (accumulation ratio for AUC) ([1]; MAD cohort 2, 1,000 mg QD oral): 0.872
- RCmax (accumulation ratio for Cmax) ([1]; MAD cohort 2, 1,000 mg QD oral): 0.746
- LI (linearity index) ([1]; MAD cohort 3, 2,000 mg QD oral): 0.7707
- RAUC (accumulation ratio for AUC) ([1]; MAD cohort 3, 2,000 mg QD oral): 0.8168
- RCmax (accumulation ratio for Cmax) ([1]; MAD cohort 3, 2,000 mg QD oral): 0.8406
- RAUC ([1]; MAD cohort 4, 2,000 mg BID): 0.9987
- RCmax ([1]; MAD cohort 4, 2,000 mg BID): 0.9799

Source: PMC8448163 (Antimicrobial Agents and Chemotherapy, 2021)
